Assays:
[1] = target: Acetylcholinesterase (Electrophorus electricus) (UniProt O42275); assay: Reactivation of paraoxon-inhibited electric eel AChE assessed as enzyme activation at 1 mM by Ellman's assay; design: scale not given: the % may be the effect or the level left
[2] = target: Acetylcholinesterase (Electrophorus electricus) (UniProt O42275); assay: Reactivation of paraoxon-inhibited electric eel AChE assessed as enzyme activation at 10 uM by Ellman's assay; design: scale not given: the % may be the effect or the level left
[3] = target: Acetylcholinesterase (Electrophorus electricus) (UniProt O42275); assay: Reactivation of paraoxon-inhibited electric eel AChE assessed as enzyme activation at 100 uM by Ellman's assay; design: scale not given: the % may be the effect or the level left
[4] = target: Acetylcholinesterase (Homo sapiens) (UniProt P22303); assay: Reactivation of paraoxon-inhibited human recombinant AChE assessed as enzyme activation at 1 mM by Ellman's assay; design: scale not given: the % may be the effect or the level left
[5] = target: Acetylcholinesterase (Homo sapiens) (UniProt P22303); assay: Reactivation of paraoxon-inhibited human recombinant AChE assessed as enzyme activation at 10 uM by Ellman's assay; design: scale not given: the % may be the effect or the level left
[6] = target: Acetylcholinesterase (Homo sapiens) (UniProt P22303); assay: Reactivation of paraoxon-inhibited human recombinant AChE assessed as enzyme activation at 100 uM by Ellman's assay; design: scale not given: the % may be the effect or the level left
[7] = target: Acetylcholinesterase (Electrophorus electricus) (UniProt O42275); assay: Inhibition of electric eel AChE at 1 mM by Ellman's assay
[8] = target: Acetylcholinesterase (Electrophorus electricus) (UniProt O42275); assay: Inhibition of electric eel AChE at 10 uM by Ellman's assay
[9] = target: Acetylcholinesterase (Electrophorus electricus) (UniProt O42275); assay: Inhibition of electric eel AChE at 100 uM by Ellman's assay
[10] = target: Acetylcholinesterase (Homo sapiens) (UniProt P22303); assay: Inhibition of human recombinant AChE at 1 mM by Ellman's assay
[11] = target: Acetylcholinesterase (Homo sapiens) (UniProt P22303); assay: Inhibition of human recombinant AChE at 10 uM by Ellman's assay
[12] = target: Acetylcholinesterase (Homo sapiens) (UniProt P22303); assay: Inhibition of human recombinant AChE at 100 uM by Ellman's assay

Chains of the proteins cited; added tags and fusions are not shown. Lines headed by an entry give the natural chain unless they say otherwise; changes in a name come on top.
UniProt O42275: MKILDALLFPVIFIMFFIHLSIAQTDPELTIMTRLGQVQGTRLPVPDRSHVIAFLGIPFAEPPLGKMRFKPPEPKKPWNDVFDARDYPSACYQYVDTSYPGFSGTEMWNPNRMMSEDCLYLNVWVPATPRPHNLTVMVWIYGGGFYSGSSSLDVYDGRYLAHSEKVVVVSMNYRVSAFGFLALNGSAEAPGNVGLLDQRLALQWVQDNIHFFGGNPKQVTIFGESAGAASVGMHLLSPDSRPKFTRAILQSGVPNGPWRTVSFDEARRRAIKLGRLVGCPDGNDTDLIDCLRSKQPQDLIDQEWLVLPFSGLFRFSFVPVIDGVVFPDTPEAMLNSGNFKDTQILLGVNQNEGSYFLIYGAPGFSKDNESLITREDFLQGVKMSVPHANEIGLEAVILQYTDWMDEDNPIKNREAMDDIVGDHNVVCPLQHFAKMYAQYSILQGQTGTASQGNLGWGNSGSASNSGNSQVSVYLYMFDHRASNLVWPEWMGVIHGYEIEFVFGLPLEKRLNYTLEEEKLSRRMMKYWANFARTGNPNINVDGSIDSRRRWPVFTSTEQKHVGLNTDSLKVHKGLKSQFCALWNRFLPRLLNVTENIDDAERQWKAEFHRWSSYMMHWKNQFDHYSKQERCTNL
UniProt P22303: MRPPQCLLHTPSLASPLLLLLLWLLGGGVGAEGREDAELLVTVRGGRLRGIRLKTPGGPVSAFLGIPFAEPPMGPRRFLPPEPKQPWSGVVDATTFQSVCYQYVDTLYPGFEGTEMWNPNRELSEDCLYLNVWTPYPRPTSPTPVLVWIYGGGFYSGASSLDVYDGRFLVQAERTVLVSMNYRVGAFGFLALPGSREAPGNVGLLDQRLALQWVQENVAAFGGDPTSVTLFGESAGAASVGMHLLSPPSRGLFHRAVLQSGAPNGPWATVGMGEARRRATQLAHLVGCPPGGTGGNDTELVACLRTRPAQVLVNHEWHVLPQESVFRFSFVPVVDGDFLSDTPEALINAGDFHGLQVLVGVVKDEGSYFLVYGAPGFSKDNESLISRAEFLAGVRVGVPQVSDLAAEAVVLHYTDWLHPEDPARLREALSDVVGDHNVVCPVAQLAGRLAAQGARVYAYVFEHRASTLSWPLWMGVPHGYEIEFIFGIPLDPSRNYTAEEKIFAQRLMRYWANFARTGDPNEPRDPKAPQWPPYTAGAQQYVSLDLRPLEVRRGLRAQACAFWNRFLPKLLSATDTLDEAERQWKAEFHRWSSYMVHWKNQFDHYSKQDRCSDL

SMILES	Activity [1]	Activity [2]	Activity [3]	Activity [4]	Activity [5]	Activity [6]	inhibition [7]	inhibition [8]	inhibition [9]	inhibition [10]	inhibition [11]	inhibition [12]
O/N=C/c1ccc[n+](CCCC[n+]2cccc(/C=N/O)c2)c1	21%	22%	45%	1%	3%	11%	–	–	–	–	–	–
O/N=C/c1cccc[n+]1COC[n+]1ccccc1/C=N/O	6%	12%	21%	0%	3%	3%	–	–	–	–	–	–
O/N=C/c1cccc[n+]1-c1cc(-[n+]2ccccc2/C=N/O)on1	0%	0%	0%	0%	1%	1%	–	–	–	–	–	–
NC(=O)c1cc[n+](CCC[n+]2ccccc2/C=N/O)cc1	16%	3%	18%	1%	1%	4%	–	–	–	–	–	–
O/N=C/c1cccc[n+]1CCC[n+]1ccccc1/C=N/O	0%	7%	5%	1%	1%	1%	–	–	–	–	–	–
O/N=C\c1ccc[n+](COC[n+]2cccc(/C=N/O)c2)c1	49%	3%	19%	1%	2%	4%	–	–	–	–	–	–
O/N=C/c1cccc[n+]1-c1ccc(-[n+]2ccccc2/C=N/O)s1	2%	59%	42%	0%	5%	14%	62%	0%	0%	42%	0%	0%
O/N=C\c1ccc[n+](CCC[n+]2cccc(/C=N/O)c2)c1	56%	15%	50%	1%	2%	10%	–	–	–	–	–	–
O/N=C/c1cc[n+](-c2ccc(-[n+]3ccc(/C=N/O)cc3)s2)cc1	3%	47%	24%	0%	11%	5%	87%	3%	28%	85%	0%	31%
CCOP(=O)(OCC)Oc1ccc([N+](=O)[O-])cc1	–	–	–	–	–	–	–	100%	100%	–	100%	100%
NC(=O)c1cc[n+](-c2ccc(-[n+]3ccc(C(N)=O)cc3)o2)cc1	0%	0%	1%	0%	0%	0%	–	–	–	–	–	–
O/N=C/c1cc[n+](CCCC[n+]2ccc(/C=N/O)cc2)cc1	28%	68%	58%	0%	14%	26%	–	–	–	–	–	–
NC(=O)c1cc[n+](CCCC[n+]2cccc(/C=N/O)c2)cc1	38%	9%	40%	20%	2%	13%	–	–	–	–	–	–
NC(=O)c1cc[n+](CCCC[n+]2ccccc2/C=N/O)cc1	59%	25%	74%	12%	4%	20%	–	–	–	–	–	–
O/N=C/c1cccc[n+]1CCCC[n+]1ccccc1/C=N/O	0%	33%	6%	0%	3%	1%	–	–	–	–	–	–
NC(=O)c1cc[n+](-c2ccc(-[n+]3cccc(/C=N/O)c3)s2)cc1	5%	3%	13%	0%	2%	2%	–	–	–	–	–	–
O/N=C/c1ccc[n+](-c2ccc(-[n+]3cccc(/C=N/O)c3)o2)c1	7%	8%	14%	0%	1%	5%	–	–	–	–	–	–
O/N=C/c1ccc[n+](-c2cc(-[n+]3cccc(/C=N/O)c3)on2)c1	0%	1%	0%	1%	1%	0%	–	–	–	–	–	–
O/N=C/c1ccc[n+](-c2ccc(-[n+]3cccc(/C=N/O)c3)s2)c1	0%	14%	2%	0%	4%	2%	–	–	–	–	–	–
NC(=O)c1cc[n+](CCC[n+]2cccc(/C=N/O)c2)cc1	38%	4%	28%	19%	2%	12%	–	–	–	–	–	–
NC(=O)c1cc[n+](-c2ccc(-[n+]3ccc(/C=N/O)cc3)s2)cc1	17%	49%	52%	1%	7%	6%	55%	0%	5%	82%	0%	15%
O/N=C/c1cc[n+](CCC[n+]2ccc(/C=N/O)cc2)cc1	–	–	–	–	–	–	29%	0%	0%	23%	0%	13%
O/N=C/c1cc[n+](-c2ccc(-[n+]3ccc(/C=N/O)cc3)o2)cc1	6%	52%	38%	0%	7%	15%	74%	0%	16%	78%	0%	16%
O/N=C/c1cccc[n+]1-c1ccc(-[n+]2ccccc2/C=N/O)o1	3%	2%	10%	3%	1%	1%	–	–	–	–	–	–
O/N=C/c1cc[n+](-c2cc(-[n+]3ccc(/C=N/O)cc3)on2)cc1	4%	31%	29%	0%	4%	7%	–	–	–	–	–	–
NC(=O)c1cc[n+](CCC[n+]2ccc(/C=N/O)cc2)cc1	77%	56%	80%	64%	10%	35%	–	–	–	–	–	–
